Measurements from patent publication US9394290B2, “Selective CYP11B1 inhibitors for the treatment of cortisol dependent diseases” (UNIVERSITAET DES SAARLANDES CAMPUS SAARBRUECKEN, priority 2010, dated 2016).

Amino acid sequences for entries named in this document (tags omitted). Residues count along the entry.
UniProt P19099, 25-503: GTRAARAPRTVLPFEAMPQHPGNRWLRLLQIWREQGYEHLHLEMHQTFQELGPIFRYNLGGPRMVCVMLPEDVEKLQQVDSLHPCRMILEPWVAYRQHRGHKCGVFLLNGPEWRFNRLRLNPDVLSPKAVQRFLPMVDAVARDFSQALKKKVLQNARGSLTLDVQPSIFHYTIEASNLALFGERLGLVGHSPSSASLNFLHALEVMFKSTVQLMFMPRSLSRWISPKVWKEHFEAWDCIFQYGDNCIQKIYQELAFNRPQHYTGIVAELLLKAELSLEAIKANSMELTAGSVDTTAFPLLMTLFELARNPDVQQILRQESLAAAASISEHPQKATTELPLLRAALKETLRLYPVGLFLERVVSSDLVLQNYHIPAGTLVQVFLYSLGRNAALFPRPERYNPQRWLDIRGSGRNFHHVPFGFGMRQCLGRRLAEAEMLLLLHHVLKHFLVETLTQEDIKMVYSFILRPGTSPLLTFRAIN

Target: human CYP11B2 (Homo sapiens (Human), UniProt P19099)
Assay: Cellular assay for CYP11B2 inhibition (V79MZh11B2 hamster fibroblasts, substrate 11-deoxycorticosterone)
Settings: read-out: IC50 value CYP11B2, Hamster fibroblasts expressing human CYP11B2, 100 nM, mean of at least three experiments, n.i. = no inhibition at an inhibitor concentration of 500 nM

IC50: 72 nM
Compound: CC(C)(C(=O)c1cccnc1)c1cccnc1 [MTP, metyrapone, reference compound]
